The values that follow are results of earlier work, collected in patent US20130023585A1, “Neuraminidase Inhibitors” (TSRL, INC., priority 2010, published 2013).

For this data set, the system named is influenza virus neuraminidase. The settings on record: cited from earlier work.

Regarding `CCC(CC)O[C@@H]1C=C(C(=O)O)C[C@H](NC(=N)N)[C@H]1NC(C)=O` [GOC, 4-guanidinio oseltamivir carboxylate], the “fold more potent inhibitor in vitro” value is “approximately 2 fold”. The half-maximal inhibitory concentration (IC50) (read-out: IC50, inhibitor of influenza virus neuraminidase) is 0.9 nM.
